Tested on: healed skin
Details: rank among groups

## O=C(O)CCC(=O)C(=O)O [soluble aKG, alpha-ketoglutarate]
  ultimate tensile strength (UTS) and % strength as compared to the intact skin: lowest
